Experimental data published in patent publication US9340577B2, “HLA binding motifs and peptides and their uses” (priority 1992, dated 2016).

Key:
[1] = molecular target: B*5101 (Homo sapiens, UniProt P01889, A329T/A93T/A95T/C349S/D138N/D201E/D98Y/E187L/E204Q/E69T/G107R/I218V/K202T/L105A/L119W/N104I/Q94N/R106L/R155S/R180L/S101N/S121T/S35A/S48A/V306I/V36M/Y195H/Y91F); assay: HLA-B*5101 peptide binding (B7-like supertype)
[2] = molecular target: A31 (Homo sapiens, UniProt P04439, A270S/D185E/E176V/E277Q/F33T/G231S/G80R/H175R/I121M/I218V/I322F/K168Q/L300P/L318F/M331R/P217A/Q94H/R138Q/T323A/T345S/T97I/V358M); assay: biochemical
[3] = molecular target: DRB1*1101 (Homo sapiens, UniProt P01903+P01911, A100R/A169T/A87E/I96F/K41T/L162R/M171V/P40S/Q125H/Q178H/Q39Y/Q99D/R42S/S66Y/T262R/V115G/W38E); conditions: read-out: DRB1*1101
[4] = molecular target: DRB1*0901 (Homo sapiens, UniProt P01903+P01911, A100R/A103E/D57H/D86V/F55Y/F60I/F76Y/I96F/K127E/L162R/M171V/P40D/Q125H/Q99R/R33Q/R42F/S133A/S66N/T210M/V115G/W38K/Y107V/Y59G/Y89S); conditions: read-out: DRB1*0901
[5] = molecular target: DR7 (DRB1*0701) (Homo sapiens, UniProt P01903+P01911, A100R/A102G/A103Q/D57E/D86V/E43K/F76Y/K127E/L162R/M171V/P40G/Q125H/Q99D/R33Q/R42Y/R54Q/S133A/S66F/T210M/V115G/Y107V/Y59L/Y89S); conditions: read-out: DRB1*0701
[6] = molecular target: T1, DR1 (DRB1*0101) (Homo sapiens, UniProt P01903+P01911, A100R/D57E/F55L/F60I/F76Y/I96L/L162R/M171V/P40L/Q125E/R42F/V115G/Y59C); conditions: read-out: DRB1*0101
[7] = molecular target: DRB1*0405 (Homo sapiens, UniProt P01903+P01911, A100R/A169T/D86S/F76Y/I96L/K127E/L162R/M171V/N62H/P40V/Q125Y/R42H/S133A/S149N/S66Y/V115G/V209L/W38E); assay: biochemical; type: binding; conditions: read-out: DRB1*0405
[8] = molecular target: T1, DR1 (DRB1*0101); assay: biochemical
[9] = molecular target: DRB1*0301 (Homo sapiens, UniProt P01903+P01911, A100K/A102G/A103R/A169T/F55Y/I96L/K41T/L162R/M171V/P40S/Q125H/Q178H/Q39Y/R42S/S66N/T106N/T262R/W38E/Y61H); assay: biochemical; type: binding
[10] = molecular target: HLA-A*0201 (HLA-A2.1) (Homo sapiens, UniProt P04439, D140Y/D185E/D98H/E176V/E277Q/G131W/G231S/I119V/I121R/I166T/I218V/L300P/L318F/N151K/N90K/P208A/P217A/Q86G/Q94H/R138H/R169H/T345S); assay: biochemical
[11] = molecular target: A*0202 (Homo sapiens, UniProt P04439, D140Y/D185E/D98H/E176V/E277Q/G131W/G231S/I119L/I121R/I166T/I218V/L180W/L300P/L318F/N151K/N90K/P208A/P217A/Q67R/Q86G/Q94H/R138H/R169H/T345S); assay: biochemical
[12] = molecular target: A*6802 (Homo sapiens, UniProt P04439, A269V/D140Y/D185E/E176V/E277Q/E87N/F33Y/G231S/I121R/I166T/I218V/L180W/L300P/L318F/N151K/P208A/P217A/Q86R/R138H/R169H/S129P/T345S/V36M); assay: biochemical; type: binding
[13] = molecular target: A*0206 (Homo sapiens, UniProt P04439, D140Y/D185E/D98H/E176V/E277Q/F33Y/G131W/G231S/I119V/I121R/I166T/I218V/L300P/L318F/N151K/N90K/P208A/P217A/Q86G/Q94H/R138H/R169H/T345S); assay: biochemical; type: binding
[14] = molecular target: B*4501 (Homo sapiens, UniProt P01889, A329T/A65T/A93T/A95T/C349S/D138N/D201E/D98Y/E176V/E187L/E204Q/E69K/H137Y/K202T/L119W/N87E/Q56L/Q94N/R155S/R180D/S121R/S35A/S48T/V127L/V306I/V36M/W191S/Y140L/Y33H/Y91S); assay: biochemical
[15] = molecular target: A*0203 (Homo sapiens, UniProt P04439, A173T/D140Y/D185E/D98H/E277Q/G131W/G231S/I119V/I121R/I166T/I218V/L180W/L300P/L318F/N151K/N90K/P208A/P217A/Q86G/Q94H/R138H/R169H/T345S); assay: biochemical; type: binding
[16] = molecular target: A2.1 HLA molecules (Homo sapiens, UniProt P04439, D140Y/D185E/D98H/E176V/E277Q/G131W/G231S/I119V/I121R/I166T/I218V/L300P/L318F/N151K/N90K/P208A/P217A/Q86G/Q94H/R138H/R169H/T345S)

Work on CC(C)C[C@H](NC(=O)[C@H](CO)NC(=O)[C@H](Cc1ccccc1)NC(=O)[C@H](C)NC(=O)[C@H](CC(C)C)NC(=O)[C@H](CS)NC(=O)[C@H](Cc1c[nH]cn1)NC(=O)[C@@H]1CCCN1C(=O)[C@@H](N)Cc1ccccc1)C(=O)O yielded an IC50 [1] of 0.0045 µM.
In the case of CC(C)C[C@H](NC(=O)[C@H](C)NC(=O)[C@H](Cc1ccccc1)NC(=O)[C@H](C)NC(=O)[C@H](CC(C)C)NC(=O)[C@H](CS)NC(=O)[C@H](Cc1c[nH]cn1)NC(=O)[C@@H]1CCCN1C(=O)[C@@H](N)Cc1ccccc1)C(=O)O [FPHCLAFAL], the IC50 [1] is reported as 0.028 µM.
CC(C)C[C@H](NC(=O)[C@H](C)NC(=O)CNC(=O)[C@H](C)NC(=O)[C@@H](NC(=O)CN)C(C)C)C(=O)N[C@H](C(=O)N[C@@H](C)C(=O)N[C@@H](Cc1ccccc1)C(=O)N[C@@H](CCCCN)C(=O)O)C(C)C [HCV lorf 1858-1867] was tested, and the IC50 [2] was 3.3 µM.
CC[C@H](C)[C@H](N)C(=O)N[C@@H](CCCNC(=N)N)C(=O)N[C@@H](CS)C(=O)N[C@H](C(=O)N[C@H](C(=O)N[C@@H](CS)C(=O)N[C@@H](CCC(N)=O)C(=O)N[C@H](C(=O)N1CCC[C@H]1C(=O)N[C@@H](CC(C)C)C(=O)N[C@@H](CS)C(=O)N1CCC[C@H]1C(=O)N[C@@H](CCC(=O)O)C(=O)N[C@@H](CCC(=O)O)C(=O)N[C@@H](CCCCN)C(=O)O)[C@@H](C)O)[C@@H](C)CC)[C@@H](C)CC [Peptide 85.0044] showed an IC50 [3] of 5.46 µM, an IC50 [4] of 28.1 µM and an IC50 [5] of 25.2 µM.
In the case of CC[C@H](C)[C@H](NC(=O)[C@H](CS)NC(=O)[C@H](CC(=O)O)NC(=O)[C@H](CCCNC(=N)N)NC(=O)[C@H](Cc1ccc(O)cc1)NC(=O)[C@@H](NC(=O)[C@@H](NC(=O)[C@H](CS)NC(=O)[C@@H](N)CC(C)C)[C@@H](C)CC)C(C)C)C(=O)N[C@@H](C)C(=O)N[C@@H](Cc1ccc(O)cc1)C(=O)N[C@@H](C)C(=O)N[C@@H](C)C(=O)N[C@@H](CS)C(=O)N[C@@H](Cc1c[nH]cn1)C(=O)O [Peptide 85.0123], the IC50 [3] is reported as 9.89 µM, the IC50 [4] is reported as 10.7 µM and the IC50 [6] is reported as 0.996 µM. For the same molecule, the IC50 [7] was 0.628 µM and the IC50 [5] was 40.1 µM.
For CSCC[C@H](NC(=O)[C@@H]1CCCN1C(=O)[C@@H]1CCCN1C(=O)[C@@H](NC(=O)[C@@H](NC(=O)[C@H](CCC(N)=O)NC(=O)[C@H](Cc1c[nH]cn1)NC(=O)CN)C(C)C)C(C)C)C(=O)N[C@@H](C)C(=O)N[C@H](C(=O)N[C@@H](CO)C(=O)N[C@@H](CCCCN)C(=O)N[C@@H](C)C(=O)N[C@@H](CCCCN)C(=O)N[C@@H](C)C(=O)O)C(C)C [Peptide 90.0011], the IC50 [8] was 0.166 µM.
CC[C@H](C)[C@H](NC(=O)[C@H](C)NC(=O)[C@H](CS)NC(=O)[C@H](CCC(=O)O)NC(=O)[C@H](CCSC)NC(=O)[C@H](CCCNC(=N)N)NC(=O)[C@@H](NC(=O)[C@@H](N)CC(C)C)[C@@H](C)CC)C(=O)N[C@@H](CCSC)C(=O)N[C@@H](Cc1ccc(O)cc1)C(=O)N[C@H](C(=O)N[C@@H](C)C(=O)N[C@@H](CCCNC(=N)N)C(=O)N[C@@H](CCC(N)=O)C(=O)N[C@@H](CCSC)C(=O)O)[C@@H](C)O [Peptide 90.0022] gave an IC50 [9] of 0.166 µM.
CC(C)C[C@H](NC(=O)[C@H](C)N)C(=O)N1CCC[C@H]1C(=O)N1CCC[C@H]1C(=O)N[C@H](C(=O)N[C@@H](C)C(=O)N1CCC[C@H]1C(=O)N[C@H](C(=O)O)C(C)C)C(C)C [Peptide 1323.01] was tested, and the IC50 [10] was 0.346 µM, the IC50 [11] was 0.672 µM and the IC50 [12] was 0.165 µM. For the same molecule, the IC50 [13] was 0.789 µM.
CC(C)C[C@H](NC(=O)[C@H](Cc1ccc(O)cc1)NC(=O)[C@@H](NC(=O)[C@@H](NC(=O)[C@H](CC(N)=O)NC(=O)[C@H](CCC(N)=O)NC(=O)[C@H](C)NC(=O)[C@H](CCC(=O)O)NC(=O)[C@@H]1CCCN1)[C@@H](C)O)[C@@H](C)O)C(=O)N[C@@H](Cc1c[nH]c2ccccc12)C(=O)N[C@@H](Cc1c[nH]c2ccccc12)C(=O)N[C@H](C(=O)O)C(C)C [Peptide 9002.0337] was tested, and the IC50 [14] was 0.0033 µM.
CC[C@H](C)[C@H](NC(=O)[C@@H](NC(=O)[C@H](Cc1c[nH]cn1)NC(=O)[C@H](CC(C)C)NC(=O)[C@H](CC(C)C)NC(=O)[C@@H](N)Cc1ccc(O)cc1)C(C)C)C(=O)N[C@@H](CCCCN)C(=O)N[C@@H](CO)C(=O)N[C@@H](CC(=O)O)C(=O)N[C@@H](CC(C)C)C(=O)O [Peptide 9013.0152] was tested, and the IC50 [15] was 0.352 µM.
CC(C)C[C@H](NC(=O)[C@H](CC(N)=O)NC(=O)[C@H](CO)NC(=O)[C@@H](NC(=O)[C@H](Cc1ccccc1)NC(=O)[C@H](CS)NC(=O)[C@H](C)NC(=O)[C@@H](N)Cc1ccc(O)cc1)C(C)C)C(=O)N[C@@H](C)C(=O)N[C@H](C(=O)O)C(C)C [Peptide 9013.0248] showed an IC50 [15] of 0.194 µM.
CC[C@H](C)[C@H](NC(=O)[C@H](CC(C)C)NC(=O)[C@H](CO)NC(=O)CNC(=O)[C@H](Cc1ccccc1)NC(=O)[C@@H](NC(=O)[C@@H](N)CCCCN)[C@@H](C)CC)C(=O)N[C@@H](Cc1ccccc1)C(=O)N[C@@H](CC(C)C)C(=O)N1CCC[C@H]1C(=O)N[C@@H](CCC(=O)O)C(=O)N[C@@H](CO)C(=O)N[C@@H](Cc1ccccc1)C(=O)N[C@@H](CC(=O)O)C(=O)NCC(=O)N[C@@H](CC(=O)O)C(=O)N1CCC[C@H]1C(=O)N[C@@H](C)C(=O)O [Peptide 9014.0240] showed an IC50 [8] of 0.731 µM.
In the case of CC(C)C[C@H](NC(=O)[C@@H](N)Cc1ccc(O)cc1)C(=O)N[C@H](C(=O)N[C@@H](C)C(=O)N[C@@H](Cc1ccc(O)cc1)C(=O)N[C@@H](CCC(N)=O)C(=O)N[C@@H](C)C(=O)N[C@H](C(=O)N[C@H](C(=O)O)C(C)C)[C@@H](C)O)C(C)C [Peptide 9016.0058], the IC50 [10] is reported as 0.0086 µM, the IC50 [11] is reported as 0.00049 µM and the IC50 [12] is reported as 0.047 µM. It also gave an IC50 [13] of 0.0058 µM.
With KLSGLGLNAV [Peptide F124.14] the “A*0201” value [16] was 0.0170.

Read-outs that look alike come from different tables or passages of the source.
